Tests used:
[1] = target: T1, sEH (Homo sapiens, UniProt P34913); test: Cell-based sEH activity assay in HepG2 cells; parameters: endogenous in cells; host or cells: HepG2; conditions: 10 µM
[2] = target: T1, sEH; type: biochemical; parameters: purchased Cayman Chemicals #10011671; conditions: 0.01 µM

The chains behind the UniProt entries cited, without tags or fusion partners.
UniProt P34913, whole entry: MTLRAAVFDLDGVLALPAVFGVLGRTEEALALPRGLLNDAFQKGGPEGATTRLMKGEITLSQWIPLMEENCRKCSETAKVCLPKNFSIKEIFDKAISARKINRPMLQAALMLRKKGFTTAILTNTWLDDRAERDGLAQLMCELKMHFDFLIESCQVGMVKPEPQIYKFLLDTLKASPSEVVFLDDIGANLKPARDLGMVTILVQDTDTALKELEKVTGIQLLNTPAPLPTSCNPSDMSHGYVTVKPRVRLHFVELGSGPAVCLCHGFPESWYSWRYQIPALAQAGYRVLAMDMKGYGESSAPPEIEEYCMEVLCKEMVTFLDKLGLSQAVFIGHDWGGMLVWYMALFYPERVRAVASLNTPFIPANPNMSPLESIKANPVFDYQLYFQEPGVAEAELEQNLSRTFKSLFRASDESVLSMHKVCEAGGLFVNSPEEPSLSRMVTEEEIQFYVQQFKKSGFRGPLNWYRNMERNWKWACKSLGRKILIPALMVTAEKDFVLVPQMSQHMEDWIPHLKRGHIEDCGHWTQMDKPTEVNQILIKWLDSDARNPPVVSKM

## AUDA [reference compound]
[1]
  inhibition of sEH activity in HepG2 cells: 80–95%
[2]
  inhibition of recombinant sEH: 80–95%
